Earlier results in US4246194A, “Amino-hydroxy-alkyl sulfonic acid-zwitterions” (priority 1979, dated 1981).

Settings: cited from earlier work

For phosphate, the buffering capacity (above pH 7.5) is given as “poor buffering capacity” and the “precipitation of polyvalent cations” value (in many systems) is given as “tends to precipitate most polyvalent cations”.
